For this assay, the target named is T1, MRP4 (Homo sapiens, UniProt O15439).
T1 construct: infected with a baculovirus construct containing the full-length cDNA encoding MRP4; made in house; host or cells: Hi5 or Sf9 insect cells (baculovirus)
As to the kind of experiment: SPA assay of MRP4 transport activity (3H-folic acid uptake into membrane vesicles). The assay is classed as biochemical. As to conditions: inhibition of MRP4 transport of 3H-folic acid into membrane vesicles from baculovirus-infected insect cells; Protein A SPA beads, anti-MRP4 rabbit antiserum. The method, then: • 1) Membrane vesicles from insect cells (Hi5 or Sf9) infected with a baculovirus construct containing the full-length cDNA encoding MRP4 are prepared as described by van Aubel et al. (van Aubel et al., 2002) with some modifications: Hi5 cells are cultured in suspension to a cell density of 1×10^6 cells/ml in Insect-Xpress serum free insect cell medium and infected with baculovirus construct containing the full-length cDNA encoding MRP4. Three days after infection, cells are collected by centrifugation at 3000 rpm for 10 min. […] Protein concentration of the membrane preparation is determined using standard methods, e.g. the BCA protein assay (Pierce, product number 23250). • 2) Determination of transport activity of MRP4: Membrane vesicles prepared in 1) are diluted in Tris/sucrose buffer to a concentration of 3.3 μg protein/μl. […] Luminescence signals are measured with the LEADSeeker or TopCount system after 30 min, 1 h, 2 h, 4 h, or up to 24 h. • 3) Calculation of inhibitory effect of a test compound: The relative transport activities of MRP4 determined in the presence of a test compound is calculated as percentage of luminescence determined in the presence of the test compound compared to luminescence determined in the absence of the test compound. […]

Sequences of proteins named here, by UniProt entry; tags and fusion partners are left off. A change or cut given only in a name is not applied to a line headed by its entry.
UniProt O15439: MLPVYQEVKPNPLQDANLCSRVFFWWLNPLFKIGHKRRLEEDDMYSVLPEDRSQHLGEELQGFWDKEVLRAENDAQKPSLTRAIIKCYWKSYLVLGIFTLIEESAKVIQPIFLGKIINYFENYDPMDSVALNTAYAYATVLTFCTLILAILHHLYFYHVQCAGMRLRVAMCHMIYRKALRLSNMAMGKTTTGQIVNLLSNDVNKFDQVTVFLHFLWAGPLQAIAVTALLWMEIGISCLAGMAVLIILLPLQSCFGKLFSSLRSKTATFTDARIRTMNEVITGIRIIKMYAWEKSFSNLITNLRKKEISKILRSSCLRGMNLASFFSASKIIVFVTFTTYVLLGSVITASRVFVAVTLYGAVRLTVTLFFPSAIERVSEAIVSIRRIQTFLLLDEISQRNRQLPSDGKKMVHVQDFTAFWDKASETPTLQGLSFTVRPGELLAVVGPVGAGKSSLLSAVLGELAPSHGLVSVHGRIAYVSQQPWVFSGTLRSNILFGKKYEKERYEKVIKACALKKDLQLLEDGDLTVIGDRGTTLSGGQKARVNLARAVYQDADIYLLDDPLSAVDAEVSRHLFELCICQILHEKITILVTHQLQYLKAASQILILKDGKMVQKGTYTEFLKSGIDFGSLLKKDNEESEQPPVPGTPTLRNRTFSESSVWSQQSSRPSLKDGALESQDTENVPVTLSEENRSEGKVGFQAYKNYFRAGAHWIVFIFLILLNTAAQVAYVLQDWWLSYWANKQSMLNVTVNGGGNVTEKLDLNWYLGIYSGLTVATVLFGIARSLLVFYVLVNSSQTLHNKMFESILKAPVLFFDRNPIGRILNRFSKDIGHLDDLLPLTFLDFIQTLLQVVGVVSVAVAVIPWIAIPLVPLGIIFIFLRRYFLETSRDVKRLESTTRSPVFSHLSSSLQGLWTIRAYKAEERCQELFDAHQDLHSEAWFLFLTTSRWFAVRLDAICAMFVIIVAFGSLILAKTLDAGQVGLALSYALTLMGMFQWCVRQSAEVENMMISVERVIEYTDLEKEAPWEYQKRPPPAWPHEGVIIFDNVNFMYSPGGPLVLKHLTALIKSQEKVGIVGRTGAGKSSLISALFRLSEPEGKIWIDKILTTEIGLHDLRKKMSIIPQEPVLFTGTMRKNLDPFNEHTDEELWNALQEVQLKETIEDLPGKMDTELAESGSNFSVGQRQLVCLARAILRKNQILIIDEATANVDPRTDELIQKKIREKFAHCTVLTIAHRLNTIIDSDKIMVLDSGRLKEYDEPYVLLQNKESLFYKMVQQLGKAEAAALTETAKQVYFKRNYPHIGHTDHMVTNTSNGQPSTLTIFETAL

This is an account of results in patent US20100015727A1, “METHOD FOR DETERMINING TRANSPORT ACTIVITY OF A TRANSPORT PROTEIN” (BOEHRINGER INGELHEIM INTERNATIONAL GMBH, priority 2006, published 2010).

By IC50 is commonly meant the concentration that inhibits the measured activity by half.

`CN(C)C(=O)CCSC(SCCC(=O)O)c1cccc(/C=C/c2ccc3ccc(Cl)cc3n2)c1` (stereo not shown) [MK571] returned an IC50 of 3.6 µM.
